According to patent US20040266790A1 (priority 2003, published 2004):
Structures can show the parent of a compound that is named as a salt.

Conditions: essentially pure form; +/-0.5 mg/ml; saturated solution 24 hours

Cc1nc2n(c(=O)c1CCN1CCC(c3noc4cc(F)ccc34)CC1)CCCC2 [risperidone monohydrochloride, Risperidone Monohydrochloride]
water solubility in terms of the risperidone base: around 7.5 mg/ml
